The term IC50 denotes the concentration needed to halve the response being measured. In general, Ki refers to the dissociation constant of the complex between target and ligand, obtained from inhibition or displacement.

Sequences of proteins named here, by UniProt entry; tags and fusion partners are left off. Residues count along the entry.
UniProt Q9Y5Z0, 63-473 limits assumed: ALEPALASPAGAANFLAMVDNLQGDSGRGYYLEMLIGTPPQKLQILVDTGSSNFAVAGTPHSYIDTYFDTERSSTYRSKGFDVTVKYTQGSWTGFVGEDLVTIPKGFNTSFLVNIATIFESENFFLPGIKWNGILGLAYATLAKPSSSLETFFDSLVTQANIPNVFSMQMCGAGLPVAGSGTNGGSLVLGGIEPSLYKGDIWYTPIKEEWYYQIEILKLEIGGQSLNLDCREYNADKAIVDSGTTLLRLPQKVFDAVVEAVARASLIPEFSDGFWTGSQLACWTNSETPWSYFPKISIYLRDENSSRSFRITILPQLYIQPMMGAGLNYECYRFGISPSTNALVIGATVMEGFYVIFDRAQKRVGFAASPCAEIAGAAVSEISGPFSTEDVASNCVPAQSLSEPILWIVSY

Consider four molecules from patent US9096541B2.

The test system of one assay is ob/ob mice. Put plainly: Reduction of plasma glucose in ob/ob mice. Particulars: 30 mg/kg daily intraperitoneal; for plasma glucose level compared with control group: 3 days after first injection.
For assay [1], the system named is memapsin 1 processing of Tmem27 in MIN6 cells. Put plainly: Inhibition of Tmem27 processing in MIN6 cells (Western blot of C-terminal fragment). Particulars: DAPT present.
For the next assay, the target named is memapsin 1 (Homo sapiens (Human), UniProt Q9Y5Z0). Put plainly: Inhibition of recombinant memapsin 1 ectodomain, fluorescent substrate.

`CC(C)CNC(=O)[C@@H](NC[C@@H](O)[C@H](Cc1ccccc1)NC(=O)c1cc(C(=O)N[C@H](C)c2ccccc2)cc(N(C)S(C)(=O)=O)c1)[C@H](C)O`: in the assay on ob/ob mice, the “time glucose suppression lasted after inhibitor injection stopped” value was determined as 3 days and the “plasma glucose level compared with control group” value is listed as “dropped below that of the control group”. In addition, the “22-kDa C-terminal fragment of Tmem27 remaining” value in assay [1] (0.4 μM inhibitor) is listed as “less than 5%”. Moreover, the “22-kDa C-terminal fragment of Tmem27” value in assay [1] (0.9 μM inhibitor) is reported as “completely abolished”.

As for `COc1ccc([C@H](NC[C@H](Cc2ccccc2)NC(=O)c2cc(C(=O)N[C@H](C)c3ccccc3)cc(N(C)S(C)(=O)=O)c2)[C@H](C)O)cc1`, at memapsin 1 (read-out: M1 inhibition Ki or IC50, cells marked (IC50)), the IC50 is 700 nM.

For the molecule `CC(C)CC(NC(=O)c1cc(C(=O)NC(C)c2ccccc2)cc(N(C)S(C)(=O)=O)c1)[C@@H](O)C[C@@H](C)C(=O)N[C@H](C(=O)NC(C)C)C(C)C` (some centres unmarked), in the assay with ob/ob mice, the “time glucose suppression lasted after inhibitor injection stopped” value is “over 21 days”; the “plasma glucose level compared with control group” value was “dropped and remained below that of the control group”.

`CCC[C@H](O)[C@H](NC[C@H](Cc1ccccc1)NC(=O)c1cc2c3c(c1)c(CC)cn3CC(C)(C)S(=O)(=O)N2C)C(=O)NC(C)C`: the Ki at memapsin 1 (read-out: M1 inhibition Ki or IC50, cells not marked (IC50)) came to 30 nM.
